Source: patent US6932990B2, “Carbohydrate absorption inhibitor and method for manufacturing the same” (Oryza Oil & Fat Chemical Co., Ltd., priority 2000, dated 2005)

Target: T1, α-amylase derived from pancreas of pig (Sus scrofa, UniProt P00690)
T1 construct: the α-amylase derived from pancreas of pig; from tissue; host or cells: pig pancreas
T1 sequence (P00690 16-511): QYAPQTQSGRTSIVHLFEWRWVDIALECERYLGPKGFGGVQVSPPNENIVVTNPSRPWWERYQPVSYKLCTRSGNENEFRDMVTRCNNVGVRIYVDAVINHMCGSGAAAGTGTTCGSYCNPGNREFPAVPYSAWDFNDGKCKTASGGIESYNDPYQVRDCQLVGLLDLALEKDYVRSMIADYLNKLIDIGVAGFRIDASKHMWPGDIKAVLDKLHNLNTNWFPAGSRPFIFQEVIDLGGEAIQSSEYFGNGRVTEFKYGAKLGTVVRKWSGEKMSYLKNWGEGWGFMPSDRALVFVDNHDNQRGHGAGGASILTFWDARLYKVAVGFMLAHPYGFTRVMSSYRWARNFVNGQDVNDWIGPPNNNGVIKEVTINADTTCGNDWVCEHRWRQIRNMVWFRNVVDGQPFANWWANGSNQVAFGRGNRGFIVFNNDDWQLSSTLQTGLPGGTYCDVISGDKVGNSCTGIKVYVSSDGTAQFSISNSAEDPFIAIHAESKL
Test: Inhibitory activity against α-amylase derived from pancreas of pig (same method)
Format: biochemical

Catechin
IC50 against the α-amylase derived from pancreas of pig: 0.8 mg/mL
